For one sequence, Activity results are on record in ChEMBL document CHEMBL2073745, “Disruption of the mouse mdr1a P-glycoprotein gene leads to a deficiency in the blood-brain barrier and to increased sensitivity to drugs” (Cell, 1994).

Amino acid sequences for entries named in this document (tags omitted).
UniProt P21447, whole entry: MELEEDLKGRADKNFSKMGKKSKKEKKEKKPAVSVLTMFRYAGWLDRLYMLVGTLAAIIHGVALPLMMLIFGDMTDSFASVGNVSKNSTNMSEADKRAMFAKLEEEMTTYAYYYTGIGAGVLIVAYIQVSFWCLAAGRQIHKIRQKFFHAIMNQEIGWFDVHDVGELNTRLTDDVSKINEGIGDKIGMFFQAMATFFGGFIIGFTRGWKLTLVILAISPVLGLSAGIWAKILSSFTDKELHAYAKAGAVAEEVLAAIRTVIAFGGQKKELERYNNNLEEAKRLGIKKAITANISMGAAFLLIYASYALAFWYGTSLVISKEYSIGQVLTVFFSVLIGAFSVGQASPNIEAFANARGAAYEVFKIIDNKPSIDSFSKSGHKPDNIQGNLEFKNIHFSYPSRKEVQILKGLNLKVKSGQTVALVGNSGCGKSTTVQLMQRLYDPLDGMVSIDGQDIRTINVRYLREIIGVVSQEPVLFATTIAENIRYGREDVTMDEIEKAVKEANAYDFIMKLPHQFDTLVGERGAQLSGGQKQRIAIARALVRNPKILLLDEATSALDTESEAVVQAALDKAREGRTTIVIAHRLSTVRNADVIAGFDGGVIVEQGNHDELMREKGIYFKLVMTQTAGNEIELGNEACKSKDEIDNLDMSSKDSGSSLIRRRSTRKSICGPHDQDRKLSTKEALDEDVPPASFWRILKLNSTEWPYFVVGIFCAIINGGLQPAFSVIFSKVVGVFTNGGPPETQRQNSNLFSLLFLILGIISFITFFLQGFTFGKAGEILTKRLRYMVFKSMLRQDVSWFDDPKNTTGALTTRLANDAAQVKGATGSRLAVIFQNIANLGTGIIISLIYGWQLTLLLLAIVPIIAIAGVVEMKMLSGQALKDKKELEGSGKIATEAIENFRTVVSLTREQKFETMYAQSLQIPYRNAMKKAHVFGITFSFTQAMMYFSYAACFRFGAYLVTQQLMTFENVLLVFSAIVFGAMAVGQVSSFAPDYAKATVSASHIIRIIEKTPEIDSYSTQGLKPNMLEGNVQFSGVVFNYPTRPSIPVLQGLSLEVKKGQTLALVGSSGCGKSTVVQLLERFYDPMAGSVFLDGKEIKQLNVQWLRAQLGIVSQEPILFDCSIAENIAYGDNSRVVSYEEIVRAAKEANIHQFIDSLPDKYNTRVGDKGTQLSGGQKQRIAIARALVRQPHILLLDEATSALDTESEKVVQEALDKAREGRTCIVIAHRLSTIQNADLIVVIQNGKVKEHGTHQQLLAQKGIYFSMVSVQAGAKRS

In this series the target is ATP-dependent translocase ABCB1 (Mus musculus, UniProt P21447). Nature of the series: TP_TRANSPORTER: increase in brain concentration in mdr1a(-/-) mouse. In kind it is functional, organism-based. The note with it: in vivo.

As for IVERMECTIN, the Activity result was “substrate [+]”.
